{"source": "patent US8648078B2", "about": "“PLK inhibitor salts” (Nerviano Medical Sciences S.R.L., priority 2009, dated 2014)", "assay": "Aqueous solubility of compound 937 salts and free base (excess solid stirred in water, filtered, HPLC)", "type": "physicochemical", "conditions": "RT, stirred 4 hours, excess solid (target 10 mg/ml)", "excerpt": "The obtained preparations have been filtered and analyzed by means of HPLC.", "data": [{"molecule": "CN1CCN(c2ccc(OC(F)(F)F)c(Nc3ncc4c(n3)-c3c(c(C(N)=O)nn3CCO)CC4)c2)CC1.O=C(O)C(O)C(O)C(=O)O", "note": "[compound 937 L-tartrate salt]", "values": [{"measurement": "aqueous solubility", "value": 1900, "unit": "µg/mL"}]}]}
